Laboratory results as given in article PMC3794980, “Identification of Conserved and HLA Promiscuous DENV3 T-Cell Epitopes” (PLoS Neglected Tropical Diseases, 2013).

Sequences of proteins named here, by UniProt entry; tags and fusion partners are left off. Residues count along the entry.
UniProt Q30154, 30-266: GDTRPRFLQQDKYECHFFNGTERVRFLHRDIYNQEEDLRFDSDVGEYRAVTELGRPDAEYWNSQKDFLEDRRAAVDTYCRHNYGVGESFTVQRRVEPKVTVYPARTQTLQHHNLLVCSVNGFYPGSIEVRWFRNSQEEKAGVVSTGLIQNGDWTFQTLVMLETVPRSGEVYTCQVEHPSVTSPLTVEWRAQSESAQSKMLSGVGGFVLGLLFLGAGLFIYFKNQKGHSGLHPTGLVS

Assays:
Assay in all cases: biochemical
Format in all cases: binding
DRB1*1302 = DRB1*1302 (Homo sapiens, UniProt P01903+P01911, A100E/A169T/K41T/L162R/M171V/P40S/Q125H/Q178H/Q39Y/Q99D/R42S/S66N/T262R/V115G/W38E/Y61H)
DRB1*0802 = DRB1*0802 (Homo sapiens, UniProt P01903+P01911, A100R/A103L/A169T/F76Y/H45Y/I96F/K41T/L162R/M171V/P40S/Q125H/Q178H/Q39Y/Q99D/R218S/R42G/S66Y/V115G/W38E)
DRB1*0301 = DRB1*0301 (Homo sapiens, UniProt P01903+P01911, A100K/A102G/A103R/A169T/F55Y/I96L/K41T/L162R/M171V/P40S/Q125H/Q178H/Q39Y/R42S/S66N/T106N/T262R/W38E/Y61H)
DRB1*0404 = DRB1*0404 (Homo sapiens, UniProt P01903+P01911, A100R/A169T/F76Y/I96L/K127E/L162R/M171V/N62H/P40V/Q125Y/R42H/S133A/S149N/S66Y/V209L/W38E)
DRB1*0101 = DRB1*0101 (Homo sapiens, UniProt P01903+P01911, A100R/D57E/F55L/F60I/F76Y/I96L/L162R/M171V/P40L/Q125E/R42F/V115G/Y59C)
DRB1*1101 = DRB1*1101 (Homo sapiens, UniProt P01903+P01911, A100R/A169T/A87E/I96F/K41T/L162R/M171V/P40S/Q125H/Q178H/Q39Y/Q99D/R42S/S66Y/T262R/V115G/W38E)
DRB1*0405 = DRB1*0405 (Homo sapiens, UniProt P01903+P01911, A100R/A169T/D86S/F76Y/I96L/K127E/L162R/M171V/N62H/P40V/Q125Y/R42H/S133A/S149N/S66Y/V115G/V209L/W38E)
DRB1*1501 = DRB1*1501 (Homo sapiens, UniProt P01903+P01911)
DRB1*0401 = DRB1*0401 (Homo sapiens, UniProt P01903+P01911, A100K/A169T/F76Y/I96L/K127E/L162R/M171V/N62H/P40V/Q125Y/R42H/S133A/S149N/S66Y/V115G/V209L/W38E)
DRB1*0701 = DRB1*0701 (Homo sapiens, UniProt P01903+P01911, A100R/A102G/A103Q/D57E/D86V/E43K/F76Y/K127E/L162R/M171V/P40G/Q125H/Q99D/R33Q/R42Y/R54Q/S133A/S66F/T210M/V115G/Y107V/Y59L/Y89S)
DRB1*0901 = DRB1*0901 (Homo sapiens, UniProt P01903+P01911, A100R/A103E/D57H/D86V/F55Y/F60I/F76Y/I96F/K127E/L162R/M171V/P40D/Q125H/Q99R/R33Q/R42F/S133A/S66N/T210M/V115G/W38K/Y107V/Y59G/Y89S)
DRB5*0101 = DRB5*0101 (Homo sapiens, UniProt P01903+Q30154)
DRB4*0101 = DRB4*0101 (Homo sapiens, UniProt P01903+P13762, G164S)
[1] = competitive inhibition of radiolabeled standard peptide, DRB1*1302, read-out: Binding Affinity (nM) DRB1*1302
[2] = competitive inhibition of radiolabeled standard peptide, DRB1*0901, read-out: Binding Affinity (nM) DRB1*0901
[3] = read-out: Binding Affinity (nM) DRB5*0101
[4] = read-out: Binding Affinity (nM) DRB4*0101
[5] = read-out: Binding Affinity (nM) DRB1*0405

CC[C@H](C)[C@H](NC(=O)[C@H](Cc1c[nH]c2ccccc12)NC(=O)[C@H](CCC(=O)O)NC(=O)[C@@H](N)CC(N)=O)C(=O)N[C@H](C(=O)N[C@@H](CC(=O)O)C(=O)N[C@@H](Cc1ccccc1)C(=O)N[C@@H](C)C(=O)NCC(=O)N[C@@H](CCCCN)C(=O)N[C@H](C(=O)N[C@H](C(=O)N[C@@H](Cc1c[nH]c2ccccc12)C(=O)N[C@@H](Cc1ccccc1)C(=O)N[C@H](C(=O)O)C(C)C)C(C)C)[C@@H](C)O)[C@@H](C)O [NS3 349-363]
IC50 (DRB1*1302; [1]): > 20000 nM | IC50 (DRB1*0802): 2.5 µM | IC50 (DRB1*0301): 6.89 µM | IC50 (DRB1*0404): 8120 nM | IC50 (DRB1*0101): 1.67 µM | IC50 (DRB1*1101; read-out: Binding Affinity (nM) DRB1*1101): > 20000 nM | IC50 (DRB1*0405): 16300 nM | IC50 (DRB1*1501): 608 nM | IC50 (DRB1*0401): 1140 nM | IC50 (DRB1*0701): 3.3 µM | IC50 (DRB1*0901; [2]): 8480 nM | IC50 (DRB5*0101; [3]): > 20000 nM

CC[C@H](C)[C@H](NC(=O)[C@@H](NC(=O)[C@H](CCCNC(=N)N)NC(=O)[C@H](CC(=O)O)NC(=O)[C@H](C)NC(=O)[C@H](CCCCN)NC(=O)[C@H](Cc1ccccc1)NC(=O)[C@@H](N)CC(N)=O)C(C)C)C(=O)N[C@@H](CC(=O)O)C(=O)N1CCC[C@H]1C(=O)N[C@@H](CCCNC(=N)N)C(=O)N[C@@H](CCCNC(=N)N)C(=O)N[C@@H](CS)C(=O)N[C@@H](CC(C)C)C(=O)N[C@@H](CCCCN)C(=O)O [NS3 417-431]
IC50 (DRB1*1302): 4670 nM | IC50 (DRB1*0802): 16.1 µM | IC50 (DRB1*0404): 18500 nM | IC50 (DRB1*0101): 1.74 µM | IC50 (DRB4*0101; [4]): > 20000 nM | IC50 (DRB1*1501): 3080 nM | IC50 (DRB1*0701): 7.91 µM | IC50 (DRB1*0901): 13300 nM | IC50 (DRB5*0101): 4780 nM

CC[C@H](C)[C@H](NC(=O)CNC(=O)[C@H](CO)NC(=O)[C@H](CCCCN)NC(=O)[C@@H](N)CCCCN)C(=O)N[C@H](C(=O)N[C@@H](CCC(=O)O)C(=O)N[C@H](C(=O)N[C@@H](CC(=O)O)C(=O)N[C@@H](CCCNC(=N)N)C(=O)N[C@H](C(=O)N[C@@H](CCC(=O)O)C(=O)N[C@@H](C)C(=O)N[C@@H](CCCCN)C(=O)N[C@@H](CCC(=O)O)C(=O)NCC(=O)N[C@@H](CC(C)C)C(=O)O)[C@@H](C)O)C(C)C)[C@@H](C)O [NS5 29-45]
IC50 (DRB1*1302): 1930 nM | IC50 (DRB1*0802): 5.71 µM | IC50 (DRB1*0301): 0.08 µM | IC50 (DRB1*0404): 7090 nM | IC50 (DRB1*0101): 7.22 µM | IC50 (DRB1*1101): 289 nM | IC50 (DRB1*0405; [5]): > 20000 nM | IC50 (DRB4*0101; [4]): > 20000 nM | IC50 (DRB1*1501; read-out: Binding Affinity (nM) DRB1*1501): > 20000 nM | IC50 (DRB1*0401): 1390 nM | IC50 (DRB1*0901; read-out: Binding Affinity (nM) DRB1*0901): > 20000 nM | IC50 (DRB5*0101; [3]): > 20000 nM

CC[C@H](C)[C@H](NC(=O)[C@H](CCC(=O)O)NC(=O)CNC(=O)[C@H](CCCNC(=N)N)NC(=O)[C@H](CCCCN)NC(=O)[C@H](CC(C)C)NC(=O)CNC(=O)[C@H](CCC(=O)O)NC(=O)[C@H](CCCCN)NC(=O)[C@H](C)NC(=O)[C@H](CCC(=O)O)NC(=O)[C@@H](N)[C@@H](C)O)C(=O)N[C@H](C(=O)N[C@@H](Cc1c[nH]cn1)C(=O)N[C@@H](Cc1c[nH]cn1)C(=O)N[C@@H](C)C(=O)N[C@H](C(=O)O)C(C)C)[C@@H](C)O [NS5 39-55]
IC50 (DRB1*1302; [1]): > 20000 nM | IC50 (DRB1*0802): 3.63 µM | IC50 (DRB1*0301): 2.65 µM | IC50 (DRB1*0404; read-out: Binding Affinity (nM) DRB1*0404): > 20000 nM | IC50 (DRB1*0101): 12 µM | IC50 (DRB1*1101): 8640 nM | IC50 (DRB1*0405; [5]): > 20000 nM | IC50 (DRB1*1501): 3160 nM | IC50 (DRB1*0401): 3250 nM | IC50 (DRB1*0701): 17.5 µM | IC50 (DRB1*0901; [2]): 16300 nM | IC50 (DRB5*0101; [3]): > 20000 nM

CC[C@H](C)[C@H](NC(=O)[C@@H]1CCCN1C(=O)[C@H](CCCCN)NC(=O)[C@@H](NC(=O)[C@@H](NC(=O)[C@H](CS)NC(=O)[C@@H](N)CC(=O)O)C(C)C)C(C)C)C(=O)N[C@@H](CC(=O)O)C(=O)N[C@@H](CC(=O)O)C(=O)N[C@@H](CCCNC(=N)N)C(=O)N[C@@H](Cc1ccccc1)C(=O)N[C@@H](C)C(=O)N[C@@H](CC(N)=O)C(=O)N[C@@H](C)C(=O)N[C@@H](CC(C)C)C(=O)N[C@@H](CC(C)C)C(=O)N[C@@H](C)C(=O)O [NS5 664-680]
IC50 (DRB1*0301): 6.87 µM | IC50 (DRB1*0404): 5010 nM | IC50 (DRB1*1101): 5080 nM | IC50 (DRB4*0101): 1550 nM | IC50 (DRB1*0701): 3.94 µM | IC50 (DRB1*0901): 3600 nM | IC50 (DRB5*0101; [3]): > 20000 nM

Like-named read-outs stand apart in the source and are kept apart here.
